Legend:
[1] = pKa of the conjugate acid of the leaving group; no measurement described; cited from earlier work
[2] = Quantitative CO analysis by GC with thermal conductivity detector; assay type: physicochemical; conditions: 37° C.
Protocol: An Agilent […] GC System equipped with a thermal conductivity detector was used to detect and quantify CO release yield of the CO prodrugs. Using a gas tight syringe, specific volumes of the headspace of 20-mL headspace vials were sampled and transferred to the injector port maintained at 125° C. Helium was used as the carrier gas with a flow rate of 30 mL/min. Gaseous components of the headspace were separated by passing through a packed column with 60/80 Carboxen-1000 matrix support, […] (4.6 m)×1⁄8 in.×2.1 mm (Supelco). The column was heated 35° C. for 5 min then 225° C. at 20° C./min while the detector was held at 125° C.

| Structure (SMILES) | pKa [1] | CO release yield ([2]; 4 to 1 acetonitrile: water, 1 h (FIG. 10)) | CO2 yield ([2]; ACN:H2O (4:1), 1 hour (FIG. 10)) |
| --- | --- | --- | --- |
| O=C(Oc1ccc([N+](=O)[O-])cc1[N+](=O)[O-])C(=O)Oc1ccc([N+](=O)[O-])cc1[N+](=O)[O-] | 4.09 |  |  |
| O=C(O)C(=O)N1C(=O)c2ccccc2S1(=O)=O |  | around 40% | around 40% |

Source: US12071415B2, “Carbon monoxide prodrugs for the treatment of medical disorders” (Georgia State University Research Foundation, Inc., priority 2018, dated 2024)
